Assays:
V600E-B-RAF = V600E-B-RAF (Homo sapiens, UniProt P15056, V600E); test: Cell-free kinase profiling, V600E-B-RAF; conditions: for One-dose (1 µM) results against V600E-B-RAF (% inhibition): mean of duplicate assays ± SEM; for pIC50 (V600E- B-RAF): from the IC50 values of Table 1, used for QSAR; for IC50: read-out: IC50 value (nM) against V600E-B-RAF, 10-dose mode
RAF1 = RAF1 (Homo sapiens, UniProt P04049); test: Cell-free kinase profiling, RAF1; conditions: for One-dose (1 µM) results against RAF1 (% inhibition): mean of duplicate assays ± SEM; for pIC50 (RAF1): from the IC50 values of Table 1, used for QSAR; for IC50: read-out: IC50 value (nM) against RAF1, 10-dose mode

Chains of the proteins cited; added tags and fusions are not shown.
UniProt P15056, whole entry V600E: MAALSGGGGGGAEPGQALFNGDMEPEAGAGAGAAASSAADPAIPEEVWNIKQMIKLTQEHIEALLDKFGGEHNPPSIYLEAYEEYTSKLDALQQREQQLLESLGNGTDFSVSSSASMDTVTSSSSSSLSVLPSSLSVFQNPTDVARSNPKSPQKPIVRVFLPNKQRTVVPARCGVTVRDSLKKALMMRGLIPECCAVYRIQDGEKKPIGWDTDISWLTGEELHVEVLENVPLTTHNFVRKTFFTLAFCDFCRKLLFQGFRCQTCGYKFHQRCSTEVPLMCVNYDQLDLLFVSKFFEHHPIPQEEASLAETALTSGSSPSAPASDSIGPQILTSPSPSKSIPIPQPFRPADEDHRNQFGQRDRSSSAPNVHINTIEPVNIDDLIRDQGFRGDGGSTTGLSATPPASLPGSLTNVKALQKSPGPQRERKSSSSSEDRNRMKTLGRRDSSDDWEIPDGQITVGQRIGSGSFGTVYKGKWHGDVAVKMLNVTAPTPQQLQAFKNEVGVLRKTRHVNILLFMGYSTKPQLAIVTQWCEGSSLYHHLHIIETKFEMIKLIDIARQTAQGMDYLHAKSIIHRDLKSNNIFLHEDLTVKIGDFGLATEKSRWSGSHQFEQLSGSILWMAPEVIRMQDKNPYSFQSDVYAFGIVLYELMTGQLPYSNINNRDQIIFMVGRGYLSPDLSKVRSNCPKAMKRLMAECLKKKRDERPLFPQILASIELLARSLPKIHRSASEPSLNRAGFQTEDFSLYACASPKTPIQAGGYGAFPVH
UniProt P04049, whole entry: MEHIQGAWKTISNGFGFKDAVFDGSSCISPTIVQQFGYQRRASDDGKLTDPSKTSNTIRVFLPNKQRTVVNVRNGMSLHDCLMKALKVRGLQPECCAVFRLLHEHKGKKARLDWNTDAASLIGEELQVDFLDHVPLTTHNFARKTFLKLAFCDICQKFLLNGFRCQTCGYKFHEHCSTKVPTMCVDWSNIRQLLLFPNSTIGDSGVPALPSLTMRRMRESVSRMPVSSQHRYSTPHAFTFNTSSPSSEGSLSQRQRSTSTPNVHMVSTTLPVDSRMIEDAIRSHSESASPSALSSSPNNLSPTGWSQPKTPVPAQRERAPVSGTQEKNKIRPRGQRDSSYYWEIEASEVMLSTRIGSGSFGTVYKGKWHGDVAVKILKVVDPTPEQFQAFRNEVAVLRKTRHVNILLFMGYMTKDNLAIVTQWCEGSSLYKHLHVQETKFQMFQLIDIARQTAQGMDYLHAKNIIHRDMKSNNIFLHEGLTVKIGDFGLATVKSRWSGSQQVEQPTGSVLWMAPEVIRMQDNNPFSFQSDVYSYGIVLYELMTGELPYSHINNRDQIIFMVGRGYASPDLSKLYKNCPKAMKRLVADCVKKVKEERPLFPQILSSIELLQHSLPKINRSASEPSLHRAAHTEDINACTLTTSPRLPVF

One-dose (1 µM) results against V600E-B-RAF (% inhibition) (V600E-B-RAF)	pIC50 (V600E- B-RAF) (V600E-B-RAF)	IC50 (V600E-B-RAF)	One-dose (1 µM) results against RAF1 (% inhibition) (RAF1)	pIC50 (RAF1) (RAF1)	IC50 (RAF1)	SMILES
87.74% ± 0.38%	6.712	194 nM	67.56% ± 4.79%	–	–	O=C(NCCNc1nccc(-c2c(-c3cccc(O)c3)nc3sccn23)n1)Nc1cc(C(F)(F)F)cc(C(F)(F)F)c1
90.43% ± 0.72%	6.842	144 nM	62.63% ± 0.34%	–	–	O=C(NCCNc1nccc(-c2c(-c3ccc(F)cc3)nc3sccn23)n1)c1ccccc1
100.66% ± 2.35%	8.131	7.4 nM	96.60% ± 0.18%	7.206	62.2 nM	O=C(NCCNc1nccc(-c2c(-c3cccc(O)c3)nc3sccn23)n1)c1cc(N2CCOCC2)cc(C(F)(F)F)c1
85.45% ± 0.42%	6.848	142 nM	55.46% ± 1.61%	–	–	O=C(NCCNc1nccc(-c2c(-c3ccc(F)cc3)nc3sccn23)n1)c1ccc2c(c1)OCCO2
79.41% ± 0.56%	6.618	241 nM	32.12% ± 2.26%	–	–	COc1cccc(-c2nc3sccn3c2-c2ccnc(NCCNC(=O)c3ccc(N4CCOCC4)c(C(F)(F)F)c3)n2)c1
80.25% ± 0.61%	7.083	82.6 nM	75.89% ± 1.43%	–	–	Cc1cn(-c2cc(C(=O)NCCNc3nccc(-c4c(-c5ccc(F)cc5)nc5sccn45)n3)cc(C(F)(F)F)c2)cn1
73.06 ± 1.72%	6.611	245 nM	63.81% ± 2.51%	–	–	COc1cccc(NC(=O)NCCNc2nccc(-c3c(-c4ccc(F)cc4)nc4sccn34)n2)c1
90.99% ± 0.56%	7.077	83.8 nM	71.39% ± 1.32%	–	–	Cc1ccc(C(=O)NCCNc2nccc(-c3c(-c4ccc(F)cc4)nc4sccn34)n2)cc1
100.24% ± 0.17%	8.469	3.4 nM	98.71% ± 0.23%	7.777	16.7 nM	O=C(NCCNc1nccc(-c2c(-c3cccc(O)c3)nc3sccn23)n1)c1cccc(C(F)(F)F)c1
99.54% ± 0.23%	7.735	18.4 nM	97.28% ± 0.08%	7.304	49.7 nM	O=C(NCCNc1nccc(-c2c(-c3cccc(O)c3)nc3sccn23)n1)Nc1cccc(C(F)(F)F)c1
77.90% ± 0.11%	6.719	191 nM	38.67% ± 5.01%	–	–	COc1ccc(C(=O)NCCNc2nccc(-c3c(-c4ccc(F)cc4)nc4sccn34)n2)cc1OC
91.40% ± 0.48%	7.107	78.2 nM	69.84% ± 0.52%	–	–	O=C(NCCNc1nccc(-c2c(-c3ccc(F)cc3)nc3sccn23)n1)c1ccccc1O
84.82% ± 0.42%	6.921	120 nM	75.69% ± 0.67%	–	–	O=C(NCCNc1nccc(-c2c(-c3ccc(F)cc3)nc3sccn23)n1)c1cc(N2CCOCC2)cc(C(F)(F)F)c1
97.66% ± 0.16%	7.951	11.2 nM	97.45% ± 0.10%	7.341	45.6 nM	O=C(NCCNc1nccc(-c2c(-c3cccc(O)c3)nc3sccn23)n1)Nc1ccccc1
83.65% ± 0.47%	6.917	121 nM	56.61% ± 2.15%	–	–	COc1cccc(-c2nc3sccn3c2-c2ccnc(NCCNC(=O)c3cccc(C(F)(F)F)c3)n2)c1

— paper PMC7534351, “Imidazothiazole-based potent inhibitors of V600E-B-RAF kinase with promising anti-melanoma activity: biological and computational studies” (Journal of Enzyme Inhibition and Medicinal Chemistry, 2020)
